The results in this text go back to patent publication US12595288B2 (priority 2020, dated 2026).

Amino acid sequences for entries named in this document (tags omitted). Residues count along the entry.
UniProt P42574, 29-277 limits assumed: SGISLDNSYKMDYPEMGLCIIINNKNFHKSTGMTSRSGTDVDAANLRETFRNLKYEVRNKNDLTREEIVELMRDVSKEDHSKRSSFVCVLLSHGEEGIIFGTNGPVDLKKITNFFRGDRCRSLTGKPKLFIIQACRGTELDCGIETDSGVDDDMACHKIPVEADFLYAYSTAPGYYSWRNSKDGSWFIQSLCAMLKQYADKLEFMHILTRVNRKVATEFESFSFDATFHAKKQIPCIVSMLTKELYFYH

What is called IC50 is the concentration at which inhibition is half-maximal.

For the assay, the target named is Caspase 3 (Homo sapiens, UniProt P42574). It is filed as biochemical. Particulars: read-out: Compound IC50.

`CC(=O)N[C@@H](CC(=O)O)C(=O)N[C@@H](CCC(=O)O)C(=O)N[C@H](C(=O)N[C@H](C=O)CC(=O)O)C(C)C` [DEVD-CHO]: the IC50 came to 2.35 nM.
